The text below walks through data of US9717742B2, “Oxysterol analogue OXY133 induces osteogenesis and hedgehog signaling and inhibits adipogenesis” (The Regents of the University of California, priority 2012, dated 2017).

“Also recorded” adds a separate entry of the source. Marks after values point to notes of the source that are not given here.

The test concerns Lewis rats. Put plainly: Posterolateral intertransverse process spinal fusion at L4-L5 in rats. Format: in vivo, rat. How it is done:
Thirty-eight 8-week-old male Lewis rats were purchased from Charles River Laboratories (Wilmington, Mass.) and were maintained and housed at the UCLA vivarium in accordance with regulations set forth by the UCLA Office of Protection of Research Subjects. The study was performed under a protocol approved by the UCLA Animal Research Committee (ARC). All animals were euthanized using a standard CO2 chamber 8 weeks after the spinal fusion procedure, and their spines were excised and stored in 40% ethyl alcohol.
Animals were pre-medicated with sustained release buprenorphine thirty minutes prior to surgery and anesthetized with 2% isoflurane administered in oxygen (1 L/min). The surgical site was shaved and disinfected with Betadine and 70% ethanol. Posterolateral intertransverse process spinal fusion at L4-L5 was performed as in prior studies (21, 22). The L6 vertebral body was identified using the iliac crest as a landmark. A 4-cm longitudinal midline incision was made through the skin and subcutaneous tissue over L4-L5 down to the lumbodorsal fascia. A 2-cm longitudinal paramedial incision was then made in the paraspinal muscles bilaterally to expose the transverse processes of L4-L5, which were decorticated with a high-speed burr. The surgical site was then irrigated with sterile saline, and 5 mm×5 mm×13 mm pieces of collagen sponge (Helistat, Integra Life Sciences) containing dimethyl sulfoxide (DMSO) control, rhBMP-2, or Oxy133 were placed bilaterally, with each implant spanning the transverse processes. The implants were then covered with the overlying paraspinal muscles and the lumbodorsal fascia and skin were closed with 4-0 Prolene sutures (Ethicon, Inc., Somerville, N.J.). Animals were allowed to ambulate, eat, and drink ad libitum immediately after surgery.
Posteroanterior radiographs of the lumbar spine were taken on each animal at 4, 6, and 8 weeks after surgery using a Faxitron LX60 cabinet radiography system and evaluated blindly by two independent observers employing the following standardized scale: 0, no fusion; 1, unilateral fusion; and 2, complete bilateral fusion. The scores from the observers were added together and only a score of 4 was considered as complete fusion.
Eight weeks after surgery, animals were euthanized and the spines were surgically removed and evaluated by two blinded independent observers for motion between levels. Nonunion was recorded if motion was observed between the facets or transverse processes on either side. Complete fusion was recorded if no motion was observed bilaterally. Spines were scored as either fused or not fused. Unanimous agreement was required to consider complete fusion.
Each removed spine was analyzed by high resolution micro-computed tomography (micro-CT), using a SkyScan 1172 scanner (SkyScan, Belgium) with a voxel isotropic resolution of 20 μm and an X-ray energy of 55 kVp and […] to further assess the fusion rate and observe the fusion mass as we have previously reported (15). Three hundred and sixty projections were acquired over an angular range of 180° with steps of 0.5 with an exposure time of 220 msec/slice. Five frames were averaged at each rotation step to get better signal to noise ratio. A 0.5 mm aluminum filter was used to narrow down the X-ray beam frequency in order to minimize beam hardening artifact. Virtual image slices were reconstructed using the cone-beam reconstruction software version 2.6 based on the Feldkamp algorithm (SkyScan). These settings produced serial cross-sectional 1024×1024 pixel images. Sample re-orientation and 2D visualization were performed using DataViewer (SkyScan). 3D visualization was performed using Dolphin Imaging version 11 (Dolphin Imaging & Management Solutions, Chatsworth, Calif.). Fusion was defined as the bilateral presence of bridging bone between the L4 and L5 transverse processes. The reconstructed images were judged to be fused or not fused by two experienced independent observers. […]

Where [1] appears, read: 5 μg rhBMP-2, at sacrifice (8 weeks).

Take “BMP2: Recombinant human bone morphogenetic protein-2”: the “bilateral bridging trabecular bone, micro-CT” value (5 μg rhBMP-2) is listed as “all animals”. Where the note is “5 μg rhBMP-2, after sacrifice”, the “bilateral fusion by manual assessment” value is given as “all animals”. Under setting [1], the “Fusion Rates (%) Manual Palpation” value was 100%, the “Fusion Rates (%) Micro-CT” value was 100% and the “Fusion Rates (%) X-ray” value is given as 100%. Moreover, the fusion on radiographs entry (5 μg rhBMP-2, eight weeks) is given as “all animals”. Also, the “bilateral fusion on radiographs” value (5 μg rhBMP-2, four weeks after operation) is given as 8/8. Besides, the “size of the fusion mass compared to 20 mg or 2 mg of Oxy133 (histology)” value (BMP2 5 μg) was “increased”. The “formation of adipocytes within the fusion mass (histology, visual inspection)” value (BMP2 5 μg vs Oxy133 treated groups, 8 weeks) is given as “robust formation of adipocytes; also recorded: significant adipocyte formation”. In addition, where the note is “BMP2 5 μg, micro-CT, 8 weeks”, the “Fusion Mass Bone Volume” value stood at 20.126 mm^3, the “Fusion Mass Bone Volume to Tissue Volume” value is reported as 19.633* %, the “Fusion Mass Total Tissue Volume” value is listed as 106.909* mm^3 and the “Fusion Mass Trabecular Separation” value is 446.126* μm. The “trabecular thickness” value (BMP2 5 μg, micro-CT, 8 weeks) is 131.131. The “bone formation in fusion mass (histological assessment)” value (BMP2 5 μg, Oxy133 2 or 20 mg, 8 weeks) was “formation of trabecular bone within the fusion mass and continuous cortical bone”.
